## Antibody variant affinities, Ab-91 heavy chain, assay 2

Source: Engelhart et al. 2022 (doi:10.1038/s41597-022-01779-4), MIT Lincoln Laboratory and A-Alpha Bio; data file from the FLAb repository.

All variants were tested on one target, the spike HR2 peptide PDVDLGDISGINAS (SARS-CoV-2).

The variants keep the light chain, the linker and the frameworks of Ab-91 (scFv order VL, three GGGGS repeats, VH).
VL: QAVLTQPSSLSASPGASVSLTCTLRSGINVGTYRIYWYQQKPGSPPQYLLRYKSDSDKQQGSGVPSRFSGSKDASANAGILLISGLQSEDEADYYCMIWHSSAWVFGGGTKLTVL
VH: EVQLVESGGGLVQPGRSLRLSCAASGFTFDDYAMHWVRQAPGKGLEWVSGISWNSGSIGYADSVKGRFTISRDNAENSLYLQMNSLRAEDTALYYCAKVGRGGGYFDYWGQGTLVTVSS

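AAYL51 was designed without a model: most single CDR substitutions and a random sample of double and triple ones. The assay is AlphaSeq: two haploid yeast populations carry antibody and antigen on their surface. Binding brings cells together so that they mate, and sequencing counts the barcode pairs among the diploids. Scores were corrected for input abundance and mapped to Kd with protein pairs of known affinity run in the same pool. The assay was run in three technical replicates.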

Changes read parent residue, position, new residue, counted from the first residue of the VH shown. Values are log10 of the apparent Kd in nM; lower means stronger binding. A mean of the replicates is given; it leaves out those without a signal. "not detected" marks a missing value. The strain was present, yet no cells mated with the target were sequenced in any replicate, which points to weak or no binding. Order: sorted from the lowest average up, undetected variants last. For reference, the parent read 1.86 as the reference entry and 0.88 as a member of this library.

changes	log10 Kd (nM), mean	replicates with signal	empty controls
S57H D107N	2.38	3 of 3	4 of 9
T28Q W53N I58V	2.57	3 of 3	4 of 9
I58T S63H G100D	3.00	1 of 3	1 of 9
G59H Y60P Y108C	3.03	1 of 3	0 of 9
G56K G100D G103H	3.72	2 of 3	3 of 9
S55P S57D Y108R	3.77	1 of 3	1 of 9
G100P R101V Y105T	3.81	1 of 3	0 of 9
S52K W53Q Y105C	4.03	1 of 3	3 of 9
A33T S52V G102T	4.10	2 of 3	0 of 9
S63C G100A	4.13	3 of 3	4 of 9
F27A W53K I58D	4.16	2 of 3	2 of 9
N54M K65I	4.19	1 of 3	2 of 9
H35N I51T Y60Q	4.28	1 of 3	1 of 9
W53M G59Y G100D	4.34	2 of 3	0 of 9
S52R R101K G103D	4.38	1 of 3	0 of 9
W53Q D62W	4.39	1 of 3	0 of 9
T28I K65L G100C	4.42	2 of 3	4 of 9
M34D G59L	4.52	2 of 3	4 of 9
F29A I51F G100M	4.54	1 of 3	1 of 9
I58P V64F Y108C	4.60	1 of 3	5 of 9
D31G V64G Y108S	4.60	3 of 3	4 of 9
F29A I51D G100L	4.75	1 of 3	2 of 9
M34Q S52A I58R	4.76	3 of 3	5 of 9
G26K T28L M34E	4.78	3 of 3	3 of 9
G56C I58P R101C	4.83	3 of 3	4 of 9
T28R D30F S57K	5.24	3 of 3	6 of 9
I51D K65P V99E	6.11	1 of 3	2 of 9
G50M D62A G102P	not detected	0 of 3	1 of 9
T28D D30E D31C	not detected	0 of 3	0 of 9
S55V I58P R101K	not detected	0 of 3	1 of 9
G26N F29H	not detected	0 of 3	0 of 9
A33N D62L R101I	not detected	0 of 3	2 of 9
M34W N54V Y105D	not detected	0 of 3	0 of 9
I51G S57N D62Y	not detected	0 of 3	0 of 9
G26S V99T G104K	not detected	0 of 3	2 of 9
F27T D31N A61L	not detected	0 of 3	1 of 9
H35G S57A G104E	not detected	0 of 3	1 of 9
F29N I51L K65Y	not detected	0 of 3	0 of 9
D31F I51M S63K	not detected	0 of 3	0 of 9
F27Q V64A G100I	not detected	0 of 3	3 of 9
D30W A33Q S63L	not detected	0 of 3	0 of 9
M34V A61W	not detected	0 of 3	3 of 9
G26Y F29M F106Y	not detected	0 of 3	1 of 9
I58Q V99Q R101Y	not detected	0 of 3	0 of 9
I51F S52H G56Y	not detected	0 of 3	0 of 9

Excerpt, the final 5 entries:

changes	log10 Kd (nM), mean	replicates with signal	empty controls
D30W A33Q S63L	not detected	0 of 3	0 of 9
M34V A61W	not detected	0 of 3	3 of 9
G26Y F29M F106Y	not detected	0 of 3	1 of 9
I58Q V99Q R101Y	not detected	0 of 3	0 of 9
I51F S52H G56Y	not detected	0 of 3	0 of 9

Background: pairings of library AAYL51 with three empty control strains gave a value in 21% of cases (median 4.54, 5th percentile 3.26). Values in that range, when seen in few replicates, are hard to tell from nonspecific mating. Also given: how often the same scFv was detected with the empty control strains.